Laboratory results taken from patent EP2773641B1, “BIARYL ETHER SULFONAMIDES AND THEIR USE AS THERAPEUTIC AGENTS” (Xenon Pharmaceuticals Inc., priority 2011, dated 2013).

Amino acid sequences for entries named in this document (tags omitted). Residues count along the entry.
UniProt Q15858, 1-1977 isoform Q15858-3: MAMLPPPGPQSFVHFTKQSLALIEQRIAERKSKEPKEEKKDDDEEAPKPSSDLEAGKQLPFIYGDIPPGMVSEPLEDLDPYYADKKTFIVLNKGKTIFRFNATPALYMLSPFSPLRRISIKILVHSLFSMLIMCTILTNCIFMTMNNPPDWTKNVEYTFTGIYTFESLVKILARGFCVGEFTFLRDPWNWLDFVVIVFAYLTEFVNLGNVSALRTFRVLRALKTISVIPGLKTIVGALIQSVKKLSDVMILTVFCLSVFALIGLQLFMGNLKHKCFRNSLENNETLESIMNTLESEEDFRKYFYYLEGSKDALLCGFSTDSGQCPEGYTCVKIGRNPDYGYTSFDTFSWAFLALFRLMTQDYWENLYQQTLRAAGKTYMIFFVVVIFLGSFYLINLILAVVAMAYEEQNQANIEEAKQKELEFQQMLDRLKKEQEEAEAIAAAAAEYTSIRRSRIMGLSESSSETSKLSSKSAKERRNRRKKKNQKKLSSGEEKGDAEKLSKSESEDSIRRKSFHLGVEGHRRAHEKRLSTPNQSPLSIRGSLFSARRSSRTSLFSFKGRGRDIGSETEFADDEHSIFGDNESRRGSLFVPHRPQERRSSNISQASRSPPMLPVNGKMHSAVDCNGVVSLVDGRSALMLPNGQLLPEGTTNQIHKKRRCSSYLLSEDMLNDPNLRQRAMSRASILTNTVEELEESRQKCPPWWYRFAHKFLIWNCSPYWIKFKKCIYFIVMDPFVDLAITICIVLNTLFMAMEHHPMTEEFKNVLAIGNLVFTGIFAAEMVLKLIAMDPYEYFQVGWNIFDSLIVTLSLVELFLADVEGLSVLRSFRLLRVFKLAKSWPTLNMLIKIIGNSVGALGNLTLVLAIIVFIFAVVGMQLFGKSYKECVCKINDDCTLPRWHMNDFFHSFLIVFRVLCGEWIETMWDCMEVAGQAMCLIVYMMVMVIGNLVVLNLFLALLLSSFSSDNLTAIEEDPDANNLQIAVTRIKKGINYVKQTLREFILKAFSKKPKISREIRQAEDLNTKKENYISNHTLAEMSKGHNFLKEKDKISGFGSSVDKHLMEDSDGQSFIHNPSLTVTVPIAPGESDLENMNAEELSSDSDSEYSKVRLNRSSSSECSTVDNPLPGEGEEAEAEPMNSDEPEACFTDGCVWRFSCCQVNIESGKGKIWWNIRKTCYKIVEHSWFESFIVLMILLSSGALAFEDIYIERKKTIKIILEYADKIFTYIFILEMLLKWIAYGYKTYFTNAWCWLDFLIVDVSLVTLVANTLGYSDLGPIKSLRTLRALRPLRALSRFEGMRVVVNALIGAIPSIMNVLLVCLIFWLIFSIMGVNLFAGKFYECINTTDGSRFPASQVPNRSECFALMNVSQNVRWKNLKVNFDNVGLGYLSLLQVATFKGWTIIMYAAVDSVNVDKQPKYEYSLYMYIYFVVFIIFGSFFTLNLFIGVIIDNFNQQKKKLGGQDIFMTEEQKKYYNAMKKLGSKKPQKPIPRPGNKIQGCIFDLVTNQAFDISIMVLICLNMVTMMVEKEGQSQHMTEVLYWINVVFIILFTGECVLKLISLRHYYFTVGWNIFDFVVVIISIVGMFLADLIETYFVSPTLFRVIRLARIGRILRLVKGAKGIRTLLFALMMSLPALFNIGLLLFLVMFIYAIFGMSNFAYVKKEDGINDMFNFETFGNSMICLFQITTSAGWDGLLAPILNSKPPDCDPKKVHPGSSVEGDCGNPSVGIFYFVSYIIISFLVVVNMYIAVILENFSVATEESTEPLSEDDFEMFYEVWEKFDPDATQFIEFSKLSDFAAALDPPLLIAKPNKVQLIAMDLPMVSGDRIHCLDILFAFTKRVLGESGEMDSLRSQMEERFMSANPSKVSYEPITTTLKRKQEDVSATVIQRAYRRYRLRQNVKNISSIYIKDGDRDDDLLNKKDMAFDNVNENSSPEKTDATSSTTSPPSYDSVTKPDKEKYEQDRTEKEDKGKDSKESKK

Target: T1, Nav1.7 (Homo sapiens, UniProt Q15858)
T1 construct: permanently transfected with an expression vector containing the full-length cDNA coding for the desired human sodium channel α-subunit; expressed in transfected cells
Test: Patch voltage clamp electrophysiology assay, block of the inactivated state of Nav1.7
Assay type: cell-based
Conditions: affinity for the inactivated state, HEK-293 cells stably expressing human Nav1.7 with β1 subunit, held at -60 mV
Description: The following patch voltage clamp electrophysiology studies were performed on representative compounds of the invention using human embryonic kidney cells (HEK), permanently transfected with an expression vector containing the full-length cDNA coding for the desired human sodium channel α-subunit, grown in culture media containing 10% FBS, 1% PSG, and 0.5 mg/mL G418 at 37 °C with 5% CO2. […] Nav1.7 and Nav1.5 cDNAs (NM_002977 and AC137587; SCN5A, respectively) were stably expressed in HEK-293 cells. The β1 subunit was coexpressed only in the Nav1.7 cell line.
Sodium currents were measured using the patch clamp technique in the whole-cell configuration using either a PatchXpress automated voltage clamp or manually using an Axopatch 200B (Axon Instruments) or Model 2400 (A-M systems) amplifier. […] The pipette was filled with a solution comprised of: 5 mM NaCl, 10 mM CsCl, 120 mM CsF, 0.1 mM CaCl2, 2 mM MgCl2, 10 mM HEPES, 10 mM EGTA; and adjusted to pH 7.2 with CsOH. […] Control sodium currents were measured in 0.5% DMSO. […]
The membrane potential was maintained at a voltage where inactivation of the channel is complete (which was -60 mV for both Nav1.7 and Nav1.5). The voltage is then stepped back to a very negative (Vhold = -150mV) voltage for 20 ms and then a test pulse is applied to quantify the compound block. […]

- IC50 (IC50 class, read-out: Nav1.7): < 100 nM
- IC50 (read-out: Nav1.7 IC50): 1.4 nM
SMILES: Nc1nc2cc(-c3cc(Cl)ccc3Oc3cc(F)c(S(=O)(=O)Nc4ncns4)cc3F)ccc2o1 [Example 56, 4-(2-(2-aminobenzo[d]oxazol-5-yl)-4-chlorophenoxy)-2,5-difluoro-N-(1,2,4-thiadiazol-5-yl)benzenesulfonamide]

Like-named read-outs stand apart in the source and are kept apart here.
